These results are taken from ChEMBL document CHEMBL5113516, “2-(Fluoromethoxy)-4'-(S-methanesulfonimidoyl)-1,1'-biphenyl (UCM-1306), an Orally Bioavailable Positive Allosteric Modulator of the Human Dopamine D1 Receptor for Parkinson's Disease” (J Med Chem, 2022).

Sequences of proteins named here, by UniProt entry; tags and fusion partners are left off.
UniProt P21728, whole entry: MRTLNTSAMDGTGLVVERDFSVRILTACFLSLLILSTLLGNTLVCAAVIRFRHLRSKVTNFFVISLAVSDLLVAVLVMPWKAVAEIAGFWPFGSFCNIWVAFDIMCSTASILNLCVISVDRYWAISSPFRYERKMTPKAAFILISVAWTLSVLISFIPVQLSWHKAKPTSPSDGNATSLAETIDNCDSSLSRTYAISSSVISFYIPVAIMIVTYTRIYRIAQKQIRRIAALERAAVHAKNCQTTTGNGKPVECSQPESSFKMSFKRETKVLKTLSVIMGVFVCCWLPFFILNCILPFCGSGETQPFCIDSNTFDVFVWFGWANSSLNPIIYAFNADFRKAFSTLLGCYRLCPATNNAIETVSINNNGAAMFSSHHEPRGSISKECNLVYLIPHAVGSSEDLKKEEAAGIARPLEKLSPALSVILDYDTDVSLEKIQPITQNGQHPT

In this assay the target is D(1A) dopamine receptor (Homo sapiens) (UniProt P21728). Briefly: Positive allosteric modulation of D1R (unknown origin) expressed in mouse CAD cells assessed as potentiation of DA-induced cAMP production relative to control. The settings on record: filed as positive allosteric modulator, dose 0.1-10 µM. In kind it is functional, cell-based. (Cyclic AMP is a second messenger, typically raised through Gs and lowered through Gi signalling.)

Consider `O=Cc1ccc(-c2ccccc2OCF)cc1`, for which the Activity entry is “Dde”.
